Patent US11517572B2, “Killing senescent cells and treating senescence-associated conditions using a SRC inhibitor and a flavonoid” (Mayo Foundation for Medical Education and Research, priority 2014, dated 2022)

Test system: senescent cells
Conditions: microscopic examination

SMILES: CNC(=O)c1cc(Oc2ccc(NC(=O)Nc3ccc(Cl)c(C(F)(F)F)c3)cc2)ccn1 [sorafenib]
- killing of senescent and non-senescent cells: both senescent cells and non-senescent cells were killed
